Test results from paper PMC11494340, “High-throughput screening for small-molecule stabilizers of misfolded glucocerebrosidase in Gaucher disease and Parkinson’s disease” (Proceedings of the National Academy of Sciences of the …, 2024).

Target: T1, HiBiT-GCase-L444P (Homo sapiens, UniProt P04062, L483P)
T1 sequence (P04062 40-536 L483P): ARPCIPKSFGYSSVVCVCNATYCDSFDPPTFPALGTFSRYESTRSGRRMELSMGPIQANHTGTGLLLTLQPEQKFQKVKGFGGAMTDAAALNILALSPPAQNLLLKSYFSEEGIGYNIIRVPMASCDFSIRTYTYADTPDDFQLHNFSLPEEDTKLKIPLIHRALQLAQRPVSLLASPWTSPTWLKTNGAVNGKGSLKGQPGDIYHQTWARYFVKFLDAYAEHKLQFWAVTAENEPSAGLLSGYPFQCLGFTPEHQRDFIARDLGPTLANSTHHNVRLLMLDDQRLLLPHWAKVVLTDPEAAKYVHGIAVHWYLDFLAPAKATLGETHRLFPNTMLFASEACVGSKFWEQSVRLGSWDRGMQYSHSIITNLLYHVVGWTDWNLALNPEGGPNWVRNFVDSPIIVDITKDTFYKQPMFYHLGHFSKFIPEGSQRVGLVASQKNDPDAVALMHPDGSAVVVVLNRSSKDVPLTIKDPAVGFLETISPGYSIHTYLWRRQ
Parameters: AUC: unit not given beside the values
Settings: for Effect on HiBiT-GCase-L444P levels: 24 h treatment, 1536-well

Structure (SMILES)	Effect on HiBiT-GCase-L444P levels	AC50 (follow-up screen, 24 h) [µM]	AUC (follow-up screen, 24 h)	CC-v2 (qHTS curve class, follow-up screen, 24 h)
CC(C)C[C@@H](C=O)NC(=O)[C@H](CC(C)C)NC(=O)[C@H](CC(C)C)NC(=O)OCc1ccccc1 [MG132] (Cbz-Leu-Leu-Leu-aldehyde)	selectively stabilized HiBiT-GCase-L444P			
Cc1cc(OCc2nnc(SC3CCCC3)n2-c2cccnc2)ccc1-c1ccc(S(C)(=O)=O)cc1 [NCGC00371131-03, NMS-873]	selectively stabilized HiBiT-GCase-L444P			
CNCCCC12CCC(c3ccccc31)c1ccccc12 [NCGC00390084-01, Maprotiline hydrochloride]		53	-25.2	2.2

Structures can show the parent of a compound that is named as a salt. Peptide text beside a SMILES is read from it. * marks the point of attachment. Cbz = O=C(OCc1ccccc1)*
